Target: GST-Bc1-2 (Homo sapiens, UniProt P10415)
Assay: Time Resolved-Fluorescence Resonance Energy Transfer (TR-FRET) Bcl-2 binding assay with F-Bak peptide probe
Conditions: GST-Bcl-2 1 nM, F-Bak probe 100 nM, Tb-anti-GST 1 nM; '<' = below limit of detection

Amino acid sequences for entries named in this document (tags omitted).
UniProt P10415, whole entry: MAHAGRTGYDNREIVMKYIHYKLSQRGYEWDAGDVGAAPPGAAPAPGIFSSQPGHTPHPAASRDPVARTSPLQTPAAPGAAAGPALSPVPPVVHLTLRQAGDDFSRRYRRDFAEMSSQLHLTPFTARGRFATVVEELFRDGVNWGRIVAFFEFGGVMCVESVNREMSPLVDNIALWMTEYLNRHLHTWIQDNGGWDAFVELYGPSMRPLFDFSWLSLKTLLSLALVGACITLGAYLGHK

| SMILES | Ki [nM] |
| --- | --- |
| CC1(C)CCC(CN2CCN(c3ccc(C(=O)NS(=O)(=O)c4cnc(OC[C@H]5C[C@H]6C[C@@H]5C[C@@]6(C)O)c(Cl)c4)c(Oc4cnc5[nH]ccc5c4)c3)CC2)=C(c2ccc(Cl)cc2)C1 [Example 343, N-[(5-chloro-6-{[(1R,2S,4R,5R)-5-hydroxy-5-methylbicyclo[2.2.1]hept-2-yl]methoxy}pyridin-3-yl)sulfonyl]-4-(4-{[2-(4-chlorophenyl)-4,4-dimethylcyclohex-1-en-1-yl]methyl}piperazin-1-yl)-2-(1H-pyrrolo[2,3-b]pyridin-5-yloxy)benzamide] | < 0.01 |
| CC1(C)CCC(CN2CCN(c3ccc(C(=O)NS(=O)(=O)c4ccc(N[C@@H]5CCN(C6COC6)C5)c([N+](=O)[O-])c4)c(Oc4cnc5[nH]ccc5c4)c3)CC2)=C(c2ccc(Cl)cc2)C1 [Example 224, 4-(4-{[2-(4-chlorophenyl)-4,4-dimethylcyclohex-1-en-1-yl]methyl}piperazin-1-yl)-N-[(3-nitro-4-{[(3R)-1-(oxetan-3-yl)pyrrolidin-3-yl]amino}phenyl)sulfonyl]-2-(1H-pyrrolo[2,3-b]pyridin-5-yloxy)benzamide] | < 0.01 |

From patent US8580794B2 (AbbVie Inc., priority 2009, dated 2013)
